From patent US9101539B2, “Intranasal pharmaceutical compositions with improved pharmacokinetics” (SHIN NIPPON BIOMEDICAL LABORATORIES, LTD., priority 2009, dated 2015)

Conditions: rhesus monkey, in vivo, inhaled or intranasal
Description: Blood was obtained at 10, 20, 30, 60, 120, 240, and 480 minutes post-administration from the monkeys administered the solid dosage form. For the monkeys treated with the nasal spray, blood was obtained 5, 10, 20, 30, 60, 120, 240, and 480 minutes post-treatment.
Blood was obtained at 5, 10, 20, 30, 60, 120, and 240 minutes post-administration.
Administered dose was 6 mg/animal. […] Blood was obtained at 5, 10, 20, 30, 60, 120, and 240 minutes post-administration.
(§1) Administered dose was 6 mg/animal. […] Administered dose was 6 mg/animal. Blood was obtained at 5, 10, 20, 30, 60, 120, and 240 minutes post-administration.
Total dose was 6 mg/animal. Blood was obtained at 5, 10, 20, 30, 60, 120, and 240 minutes post-administration.
as §1, §1
(§2) Administered dose was 6 mg/animal. […] Administered dose was 6 mg/animal. […] Blood was obtained at 5, 10, 20, 30, 60, 120, and 240 minutes post-administration.
as §2

AUC: 2865 ng:min/ml | Cmax: 345 ng/mL
SMILES: CNS(=O)(=O)Cc1ccc2[nH]cc(CCN(C)C)c2c1 [sumatriptan freebase]
